High-throughput results: PubChem BioAssay, National Center for Advancing Translational Sciences (NCATS)
Rows were chosen to be rich in hits. Some 13% of all compounds tested hit in one or more screens of this group.
KDM4E inh: JMJD2E (human) inhibition. B2RXH2. JMJD2E catalytic domain, FDH-coupled NADH fluorescence (FDH is formaldehyde dehydrogenase). Potency, µM (top dose mostly 57.1 µM), inactives show at the top dose activity change, negative = inhibition, actives largely listed as inhibitors. 1.6% of 230,000 active. AID 2147; active = well fitted inhibition curve with a large enough effect, not every such curve was filed as active; inconclusive = small, poorly fitted or top-dose-only effect, or another doubt; inactive = no such curve, though single readings can be large or run the other way;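 note: potency is the fitted concentration of half-maximal effect; 0% = wells with enzyme and -100% = buffer wells without enzyme; nearly all actives have a fitted effect of over 50% in size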
miR-21 reporter: raises the signal of a miR-21 reporter | HeLa miR-21 FLuc reporter, luciferase, 48 h | Potency, µM (doses to about 38.3 µM), for the others: at the highest dose reporter change, positive = more light | 340,000 tested, under 10 active | AID 2288; active = well fitted rising curve with a large enough effect; inconclusive = small, poorly fitted or top-dose-only effect; inactive = no such curve, though single readings can be large or run the other way;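 also: % of control where 0% means no effect; miR-21 action dims this reporter so a rising signal means less miR-21 action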
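Luminescence from a firefly luciferase reporter carrying a miR-21 binding site downstream, stably expressed under a CMV promoter in HeLa cells that make miR-21 endogenously, reports miRNA modulation after 48 h compound exposure up to approximately 40uM final.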
ALDH1A1 inh: inhibitors of human aldehyde dehydrogenase 1A1 | 7.3% of 220,000 active | Purified ALDH1A1, NADH fluorescence, propionaldehyde substrate | P00352 | Potency, µM (titrated, usually from 75.3 µM), without a hit: at the highest dose activity, negative = inhibition, hits mostly inhibitors; active = well fitted inhibition curve with a large enough effect, not every such curve was filed as active; inconclusive = small, poorly fitted or top-dose-only effect, or another doubt; inactive = no such curve, though single readings can be large or run the other way;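 note: potency is the fitted concentration of half-maximal effect; plate controls were no enzyme wells and a reference inhibitor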
G9a inh: inhibitors of human histone lysine methyltransferase G9a | G9a H3K9 monomethylation, AlphaScreen, 2 h | Potency, µM (titrated, usually from 102 µM), for inactives: at the top dose activity, negative = inhibition, hits mostly inhibitors | 8.8% of 350,000 active | AID 504332; note: potency is the fitted concentration of half-maximal effect; % is set by controls: 0 for no effect and ±100 for the full control effect; nearly all actives have a fitted effect of over 75% in size
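Quantitative HTS format: methyltransferase activity on a biotin-tagged H3K9 peptide is measured by AlphaScreen, using a rabbit anti-monomethyl-H3K9 antibody with streptavidin donor and anti-IgG acceptor beads. Final levels are 20 nM enzyme, 500 nM peptide, 20 uM SAM; 2 h RT.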
Sfp PPTase inh: qHTS Assay for Inhibitors of Bacillus subtilis Sfp phosphopantetheinyl transferase (PPTase); 4'-phosphopantetheinyl transferase ffp (Bacillus subtilis), Q9F4F7; Biochemical Sfp PPTase activity, qHTS; Potency, µM, inactives show max response, negative = inhibition, hits mostly inhibitors; 310,000 compounds, 3.5% hits; AID 1490, 2009; active means well fitted inhibition curve with a large enough effect; inconclusive means small, poorly fitted or top-dose-only effect, or another doubt; inactive means no such curve, though single readings can be large or run the other way;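 further: the enzyme is Sfp with the accession as filed and its product quenches rhodamine fluorescence; potency means the concentration at half of the fitted maximal effect; 0% = enzyme reaction without inhibitor and -100% = no enzyme wells; top concentration of the series not given in the record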
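Step 1, compound plus 15 nM Sfp-PPTase, 15 min, room temperature. Step 2, add rhodamine-CoA (5 uM) and BHQ-2-YbbR (12.5 uM). Step 3, read 525/598 nm fluorescence at 0 and 30 min.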
Lamin A splicing: changes lamin A minigene splicing in HeLa cells | HeLa LMNA splicing GFP/RFP minigene ratio, 48 h | 0.01% of 200,000 active | Potency, µM (series often up to 46.1 µM), for the others: at the highest dose ratio change, negative = inhibition, actives largely listed as inhibitors; active = well fitted inhibition curve with a large enough effect in the signal ratio, with a control signal flat, not every such curve was filed as active; inconclusive = small, poorly fitted or top-dose-only effect, or effect the other way, or a change in a side signal; the % refers to the signal ratio; note: potency is the fitted concentration of half-maximal effect; % is set by controls: 0 for no effect and ±100 for the full control effect
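S3 HeLa stable clones carrying a lamin A-EGFP splicing minigene plus DsRed2 were seeded at 600 cells/well in Opti-MEM with 2% FBS, pin-dosed and incubated 48 h at 37°C. Acumen cytometry (488 nm) gave the GFP/RFP total-intensity ratio.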
Active calls of the source: *; ? = inconclusive; nt = not tested or not shown; [ ] = dose if it differs, or a comment. Unless noted, calls come from the whole dose curve; as a rule, active = well fitted curve in the direction sought with a large enough effect; inconclusive = small, poorly fitted or top-dose-only effect, or another doubt; inactive = no such curve, though single readings can be large; an effect the other way counts as inactive or inconclusive.

cpd	mol	KDM4E inh	miR-21 reporter	ALDH1A1 inh	G9a inh	Sfp PPTase inh	Lamin A splicing
1	Cc1ccc2c(c1)-c1c(c(C(=O)NCCc3ccccc3)nn1C)CS2	nt	-5%	nt	3%[59 µM]	nt	?
2	C=C(C)COc1ccc(-c2[nH]ncc2Oc2ccccc2OCC)c(O)c1	-4%	-8%	1.6µM*	59%[59 µM]	2%	?
3	Cc1cc(NS(=O)(=O)c2ccc(Nc3nc(-c4ccc(O)cc4)cs3)cc2)no1	6%	-9%	?	50µM*	-30%	-25%
4	Cc1cc(NS(=O)(=O)c2ccc(Nc3nc(-c4sc(N)nc4C)cs3)cc2)no1	6%	0%	1%	-10%[12.7 µM]	50µM*	3%
5	CC1=C(c2ccc(Cl)cc2)S(=O)(=O)NC1=NCCCN1CCN(c2cc(C)ccc2C)CC1	nt	9%	nt	?	nt	nt
6	CCC(C(=O)N1CCN(c2ccccc2)CC1)n1c(C)c2cnn(-c3ccccc3)c(=O)c2c1C (stereo not given)	nt	3%	nt	-22%[59 µM]	nt	nt
7	CCC(C(=O)NCCN1CCN(C)CC1)n1c(C)c2cnn(-c3ccccc3)c(=O)c2c1C (stereo not given)	-15%	-8%	22µM*	-16%[12.7 µM]	1%	0%
8	CCCN1CCN(C(=O)CCCn2c(C)c3cnn(-c4ccccc4)c(=O)c3c2C)CC1	-16%	-11%	28µM*	?	-5%	-15%
9	CCn1cc(C(=O)NCCC(C)C)c(=O)c2cc(F)c(N3CCN(C)CC3)cc21	nt	-1%	nt	-32%	9%	nt
10	Cc1nc2nc(SCC(N)=O)[nH]c2cc1Br	-3%	-6%	-3%	?	-5%	-9%
11	Cc1ccnc(SC2CC(=O)N(c3ccc([N+](=O)[O-])cc3)C2=O)n1 (stereo not given)	nt	2%	nt	35µM*	2%	nt
12	CCOC(=O)CNC(=O)CSc1nc2nc(C)c(Br)cc2[nH]1	0%	-9%	1%	35µM*	9%	3%
13	COc1ccc(C(CC(=O)c2ccc(C)cc2)Nc2ccc([N+](=O)[O-])cc2)cc1 (stereo not given)	-4%	-15%	?	?	3%	?
14	Cc1ccc(C(=O)CC(SCC(=O)O)c2ccc([N+](=O)[O-])cc2)cc1 (stereo not given)	1%	-12%	?	25µM*	-16%	?
15	Cc1cc(N2CCCC2)nc(SCC(=O)c2ccccc2)n1	9%	-11%	-4%	12%[59 µM]	12%	-1%
16	Cc1cc(N2CCC(C)CC2)nc(SCC(=O)c2ccccc2)n1	-2%	0%	14µM*	-3%[59 µM]	-2%	-1%
17	Cc1nc2nc(SCC(=O)c3ccc([N+](=O)[O-])cc3)[nH]c2cc1Br	-1%	-25%	?	20µM*	-3%	-12%
18	Cc1ccnc(SCC(=O)c2ccc([N+](=O)[O-])cc2)n1	-9%	0%	?	13µM*	45µM*	-1%
19	O=C(CSc1nc2ncccc2[nH]1)c1ccc(F)cc1	1%	-31%	?	5%[59 µM]	1%	-2%
20	Cc1ccnc(SCC(=O)O)n1	1%	4%	7%	15%	4%	0%

The last four records of the section above are carried over, then new ones follow:
cpd	mol	KDM4E inh	miR-21 reporter	ALDH1A1 inh	G9a inh	Sfp PPTase inh	Lamin A splicing
17	Cc1nc2nc(SCC(=O)c3ccc([N+](=O)[O-])cc3)[nH]c2cc1Br	-1%	-25%	?	20µM*	-3%	-12%
18	Cc1ccnc(SCC(=O)c2ccc([N+](=O)[O-])cc2)n1	-9%	0%	?	13µM*	45µM*	-1%
19	O=C(CSc1nc2ncccc2[nH]1)c1ccc(F)cc1	1%	-31%	?	5%[59 µM]	1%	-2%
20	Cc1ccnc(SCC(=O)O)n1	1%	4%	7%	15%	4%	0%
21	Cc1cc(C)nc(SCC(=O)c2ccc([N+](=O)[O-])cc2)n1	-6%	-7%	?	?	45µM*	-2%
22	O=C(O)c1cccc(OS(=O)(=O)c2cc(Br)ccc2Br)c1	nt	nt	nt	5%[12.7 µM]	nt	nt
23	CCN1CCCC1Cn1c(-c2ccccc2)nc2c(NC3CCCCC3)nc(C)nc21 (stereo not given)	?	nt	?	nt	17%	nt
24	COc1ccc(-n2c(=O)c3ccccc3n(Cc3ccc(F)cc3Cl)c2=O)cc1OC	nt	-1%	nt	5%[59 µM]	nt	nt
25	CC(c1ccc(F)cc1)n1c(-c2cccs2)n[nH]c1=S (stereo not given)	?	-9%	?	5µM*	?	nt
26	Cc1cc(-c2n[nH]c(=S)n2-c2ccccc2C)cs1	7%	-23%	?	1.3µM*	?	6%
27	CC(c1ccccc1)n1c(-c2ccccc2F)n[nH]c1=S (stereo not given)	nt	-9%	nt	nt	-6%	nt
